Curated experimental data: melting point values

Source: data files of OPERA 2.9 (Mansouri et al.), github.com/kmansouri/OPERA.

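The OPERA project collected these measurements from public sources as training and test data for property models. One number stands for a compound and property, with no spread given. Method, purity and exact conditions of the single measurements are not given. A value may pool stereoisomers or salt forms, and the file does not say which form was measured. Some upstream entries may be estimates or bounds without being marked so.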

Melting points are in °C.

{"smiles": "O=C(O)c1ccc(N2CCCC2=O)cc1", "name": "4-(2-Oxo-pyrrolidin-1-yl)-benzoic acid", "MP (°C)": "251"}
{"smiles": "Nc1c(C(=O)O)ccc(Cl)c1Cl", "name": "2-amino-3,4-dichlorobenzoic acid", "MP (°C)": "236"}
{"smiles": "CCOC(=O)c1ccc(-c2ccc(C=O)o2)cc1", "name": "Ethyl 4-(5-formyl-2-furyl)benzoate", "MP (°C)": "111"}
{"smiles": "Cc1cc(CN)ccc1C(N)=O", "name": "4-(Aminomethyl)-2-methylbenzamide", "MP (°C)": "91"}
{"smiles": "Cc1ccc2c(c1)C(=O)C(C)C2", "stereo": "stereo not given", "MP (°C)": "8.5"}
{"smiles": "CCc1ccccc1OCC(=O)O", "name": "(2-Ethylphenoxy)acetic acid", "MP (°C)": "125"}
{"smiles": "COc1ccc(NC(=O)OC(C)(C)C)c(N)c1", "name": "tert-butyl N-(2-amino-4-methoxyphenyl)carbamate", "MP (°C)": "117"}
{"smiles": "CN1C(=O)N(C)C(O)C1O", "stereo": "stereo not given", "name": "4,5-Dihydroxy-1,3-dimethylimidazolidin-2-one", "MP (°C)": "130"}
{"smiles": "COc1ccc(-c2[nH]c(=N)sc2C)cc1", "name": "4-(4-Methoxyphenyl)-5-methyl-1,3-thiazol-2(3H)-iminato", "MP (°C)": "121"}
{"smiles": "Cc1cc(C(C)(C)C)c(O)c(C)c1CC#N", "name": "(4-tert-Butyl-3-hydroxy-2,6-dimethylphenyl)acetonitrile", "MP (°C)": "136.5"}
{"smiles": "O=CNc1cccc(O)c1", "name": "3-Formylaminophenol", "MP (°C)": "116"}
{"smiles": "Nc1ccc(S(=O)(=O)O)cc1S(=O)(=O)O", "name": "1,3-Benzenedisulfonic acid, 4-amino-", "MP (°C)": "205"}
{"smiles": "CCOC(=O)CCC(C)=O", "name": "Ethyl levulinate", "MP (°C)": "-17.5"}
{"smiles": "CCOc1cc(Br)c(C=O)cc1OCC", "name": "2-bromo-4,5-diethoxybenzaldehyde", "MP (°C)": "71.5"}
{"smiles": "S=c1[nH]cccc1Cl", "name": "3-Chloropyridine-2(1H)-thione", "MP (°C)": "205"}
{"smiles": "NNc1cn[nH]c(=O)c1Cl", "name": "4-Chloro-5-hydrazino-3-pyridazinol", "MP (°C)": "172"}
{"smiles": "CCCC[C@H]1CO[C@H](c2ccc(-c3ccc(-c4cc(F)c(F)c(F)c4)c(F)c3)cc2)OC1", "MP (°C)": "74.3"}
{"smiles": "O=C(O)C1(c2ccc(Br)cc2)CCCCC1", "name": "1-(4-Bromophenyl)cyclohexane-1-carboxylic acid", "MP (°C)": "180"}
{"smiles": "CCN(CCC(=O)OC)c1ccc(N=Nc2snc3ccc([N+](=O)[O-])cc23)cc1", "name": "C.I. Disperse Blue 148", "MP (°C)": "82.5"}
{"smiles": "FC(F)C(F)(F)C(F)(F)C(F)(F)C(F)(F)C(F)(F)C(F)(F)F", "name": "1-Hydroperfluoroheptane", "MP (°C)": "-42"}
{"smiles": "CC(C)(C)OC(=O)Nc1ccc(F)c(N)c1", "name": "tert-Butyl (3-amino-4-fluorophenyl)carbamate", "MP (°C)": "123"}
{"smiles": "CC(C)c1ccc(C(=O)CC#N)cc1", "name": "3-(4-isopropylphenyl)-3-oxopropanenitrile", "MP (°C)": "92"}
{"smiles": "NNC(=O)c1cc(-c2ccncc2)nc2ccccc12", "name": "2-pyridin-4-ylquinoline-4-carbohydrazide", "MP (°C)": "227"}
{"smiles": "Cc1ccc(S(=O)(=O)Cl)c(Br)c1", "name": "2-Bromo-4-methylbenzene-1-sulfonyl chloride", "MP (°C)": "71"}
{"smiles": "CCCCCCOC(=O)c1ccc(N)cc1", "name": "Hexyl 4-aminobenzoate", "MP (°C)": "62"}
{"smiles": "CCOC(=O)CC(=O)c1[nH]c(C)c(C(=O)OCC)c1C", "MP (°C)": "142"}
{"smiles": "CCC(F)(F)C(F)(F)C(F)(F)C(F)(F)C(F)(F)C(F)(F)C(F)(F)C(F)(F)C(F)(F)C(F)(F)F", "MP (°C)": "26.9"}
{"smiles": "COc1cccc2cc(C=O)oc12", "name": "7-Methoxybenzofuran-2-carbaldehyde", "MP (°C)": "46"}
{"smiles": "Cc1ccc(S(N)(=O)=O)cc1N", "name": "3-amino-4-methylbenzenesulfonamide", "MP (°C)": "177"}
{"smiles": "CCOC(=O)c1cnc(SC)nc1N", "name": "Ethyl 4-amino-2-(methylsulfanyl)pyrimidine-5-carboxylate", "MP (°C)": "115"}
{"smiles": "Clc1cc(-c2ccccc2)c2ccccc2n1", "name": "2-chloro-4-phenylquinoline", "MP (°C)": "87"}
{"smiles": "CCOCCOC(=O)/C(C#N)=C1\\C=C(NCCCOC)CCC1", "MP (°C)": "92.65"}
{"smiles": "Nn1c(COc2ccccc2)n[nH]c1=S", "MP (°C)": "165"}
{"smiles": "Clc1ccc(Oc2c(Cl)cc(Cl)c(Cl)c2Cl)c(Cl)c1", "name": "2,2',4,4',5,6-Hexachlorodiphenyl ether", "MP (°C)": "121"}
{"smiles": "CCCCOCc1ccc(O)c(OC)c1", "name": "Phenol, 4-(butoxymethyl)-2-methoxy-", "MP (°C)": "-59"}

Excerpt, the final 4 entries:

{"smiles": "CCOCCOC(=O)/C(C#N)=C1\\C=C(NCCCOC)CCC1", "MP (°C)": "92.65"}
{"smiles": "Nn1c(COc2ccccc2)n[nH]c1=S", "MP (°C)": "165"}
{"smiles": "Clc1ccc(Oc2c(Cl)cc(Cl)c(Cl)c2Cl)c(Cl)c1", "name": "2,2',4,4',5,6-Hexachlorodiphenyl ether", "MP (°C)": "121"}
{"smiles": "CCCCOCc1ccc(O)c(OC)c1", "name": "Phenol, 4-(butoxymethyl)-2-methoxy-", "MP (°C)": "-59"}